pEC50: −log10 of the molar value.
Target: hSK3 (Homo sapiens, UniProt Q9UGI6)
Assay: biochemical

The chains behind the UniProt entries cited, without tags or fusion partners.
UniProt Q9UGI6, whole entry: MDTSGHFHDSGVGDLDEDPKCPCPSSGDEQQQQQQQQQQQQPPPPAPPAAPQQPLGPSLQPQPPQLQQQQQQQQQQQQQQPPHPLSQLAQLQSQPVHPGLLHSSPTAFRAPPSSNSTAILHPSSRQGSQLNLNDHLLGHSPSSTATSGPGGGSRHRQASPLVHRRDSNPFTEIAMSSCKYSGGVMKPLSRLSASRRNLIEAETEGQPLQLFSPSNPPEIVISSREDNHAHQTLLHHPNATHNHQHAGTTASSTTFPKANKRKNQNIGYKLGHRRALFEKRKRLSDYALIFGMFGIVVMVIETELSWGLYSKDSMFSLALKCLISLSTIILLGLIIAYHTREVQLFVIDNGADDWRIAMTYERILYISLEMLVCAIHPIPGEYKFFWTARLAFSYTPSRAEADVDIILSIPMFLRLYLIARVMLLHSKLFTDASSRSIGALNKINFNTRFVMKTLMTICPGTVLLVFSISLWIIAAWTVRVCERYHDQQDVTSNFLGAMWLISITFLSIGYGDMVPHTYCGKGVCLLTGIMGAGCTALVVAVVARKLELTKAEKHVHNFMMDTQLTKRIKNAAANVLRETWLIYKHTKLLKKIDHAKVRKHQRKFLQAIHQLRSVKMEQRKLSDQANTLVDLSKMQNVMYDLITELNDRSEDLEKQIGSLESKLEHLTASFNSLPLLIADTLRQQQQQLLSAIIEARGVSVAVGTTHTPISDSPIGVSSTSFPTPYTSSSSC

pEC50: 4.80
Structure (SMILES): Nc1nc2ccc(OC(F)(F)F)cc2s1 [Riluzole]

From publication PMC3483567 (Chemistry & biology, 2012)
